Earlier results as cited in patent publication US7429557B2, “Replacement solvents having improved properties and methods of using the same” (Mainstream Engineering Corporation, priority 2005, dated 2008).

Details: reported; cited from earlier work

FC(F)(Cl)C(F)(Cl)Cl [CFC-113, 1,1,2-trichloro-1,2,2-trifluoroethane]
Ames test: negative
